Measured values published in patent US20120244567A1, “HUMAN EMBRYONIC STEM CELLS FOR HIGH THROUGHOUT DRUG SCREENING” (BUCK INSTITUTE FOR RESEARCH ON AGING, priority 2009, published 2012).

Tested on: NSCs
Test: Effect of solTNFα on NSC survival
Format: cell-based, human
Settings: for cell death between treated and untreated cells: 0.1 mM, 1 mM and 10 mM, 48 hours
Method: For measuring the effect of TNFc on NSCs, 16 NSCs were passaged onto fibronectin-coated 4-well plates in Neurobasal media supplemented with 1×B27, 2 mM L-glutamine and 10 ng/ml of both bFGF and LIF growth factors. Cells were recovered for 12 hours at 37° and then either left untreated or treated with solTNFα at the concentrations indicated.
We therefore examined whether cell death in NSCs upon amiodarone HCl exposure could be due to the activation of soluble TNFα signaling pathways. Three dosages of soluble TNFα (0.1 mM, 1 mM and 10 mM) were tested in NSC culture for 48 hours.

Q: What does the source list for “solTNFα: soluble biologically active form of TNFα, a potent pro-inflammatory cytokine”?
A: cell death relative to untreated cultures (0.1 nM, 1 nM and 10 nM, up to 24 hours): No increase in cell death; cell death between treated and untreated cells: no increase in cell death; cell death between treated and untreated cells (listed as soluble TNFα): did not observe differences in cell death
